Patent US5929063A, “Mercapto and seleno derivatives as inhibitors of nitric oxide synthase” (priority 1995, dated 1999)
pEC50: −log10 of the molar value.

Target: T1, ecNOS (Bos taurus, UniProt P29473)
T1 construct: the intimal surface of fresh bovine aortae was scraped and homogenized; from tissue; host or cells: homogenate of intimal scrapings of fresh bovine aortae
Assay: ecNOS activity from intimal scrapings of fresh bovine aortae (conversion of [3H]-L-arginine to [3H]-L-citrulline)
Format: biochemical
Conditions: ecNOS (Table 2); read-out: EC50 for inhibition of ecNOS activity in tissue homogenates
Procedure: The intimal surface of fresh bovine aortae was scraped in the presence of homogenation buffer composed of 50 mM Tris-HCl, 0.1 mM ethylenediamine tetraacetic acid (EDTA) and 0.1 mM ethyleneglycol bis (beta-aminoethyl ether) (EGTA). Conversion of [^3 H]-L-arginine to [^3 H]-L-citrulline was measured in the homogenates as follows: cell homogenate (50 μl) was incubated in the presence of [^3 H]-L-arginine (10 μM, 5 kBq/tube), NADPH (2 mM), calmodulin (30 nM), tetrahydrobiopterin (5 μM) and calcium (2 mM) for 20 minutes at 37° C. in N-2-hydroxethyl piperazine-N-2-ethane sulfonic acid (HEPES) buffer (pH 7.5). Reactions were stopped by dilution with 1 ml of ice cold HEPES buffer (pH 5.5) containing EGTA (2 mM) and EDTA (2 mM). Reaction mixtures were applied to Dowex 50W (Na^+ form) columns and the eluted [^3 H]-L-citrulline activity was measured by scintillation counting. bNOS activity was measured using similar methods in homogenates of whole rat brains.
For a preparation rich in ecNOS, the intimal surface of fresh bovine aortae was scraped and homogenized. The homogenization buffer was composed of 50 mM tris-HCL, 0.1 mM EDTA, 0.1 mM EGTA and 1 mM phenylmethylsulfonyl chloride (pH 7.4). […] Conversion of [^3 H]-L-arginine to [^3 H]-L-citrulline was measured in the homogenates as described in Example 3 above.

pEC50: 5.70
SMILES: N=C(NCCC[C@H](N)C(=O)O)N[N+](=O)[O-] [L-NA, N^G -Nitro-L-arginine, reference compound]
